Data taken from ChEMBL document CHEMBL3885861, “Open TG-GATES”.

Assays:
Rattus norvegicus [1] = organism: Rattus norvegicus; experiment: Open TG-GATES - Regimen: Single; format: toxicity, organism-based, Sprague-Dawley; set-up: regimen Single, gender Male, age 6 weeks; details: in vivo
Rattus norvegicus [2] = organism: Rattus norvegicus; experiment: Open TG-GATES - Regimen: Daily Repeat; format: toxicity, organism-based, Sprague-Dawley; set-up: regimen Daily Repeat, gender Male, age 6 weeks; details: in vivo, po, tissue Plasma, route gavage
[3] = po, 0 mg/kg, 9 h, tissue Plasma, route gavage, dose level Control
[4] = po, 0 mg/kg, 24 h, tissue Plasma, route gavage, dose level Control
[5] = ip, 0 mg/kg, 3 h, tissue Blood, route intraperitoneal injection, dose 0 ug/Kg, dose level Control
[6] = 0 mg/kg, 72 h, dose level Control, time 3 day
[7] = 0 mg/kg, […], dose level Control, time 7 day
[8] = 0 mg/kg, […], dose level Control, time 14 day
[9] = 0 mg/kg, […], dose level Control, time 28 day
[10] = 25 mg/kg, 72 h, dose level Low, time 3 day
[11] = 25 mg/kg, […], dose level Low, time 7 day
[12] = 25 mg/kg, […], dose level Low, time 14 day
[13] = 25 mg/kg, […], dose level Low, time 28 day
[14] = 75 mg/kg, 72 h, dose level Middle, time 3 day
[15] = 75 mg/kg, […], dose level Middle, time 7 day
[16] = 75 mg/kg, […], dose level Middle, time 14 day
[17] = 75 mg/kg, […], dose level Middle, time 28 day
[18] = 250 mg/kg, 72 h, dose level High, time 3 day
[19] = 250 mg/kg, […], dose level High, time 7 day
[20] = 250 mg/kg, […], dose level High, time 14 day
[21] = 250 mg/kg, […], dose level High, time 28 day
[22] = po, 0 mg/kg, 3 h, tissue Plasma, route gavage, dose level Control
[23] = po, 0 mg/kg, 6 h, tissue Plasma, route gavage, dose level Control
[24] = po, 25 mg/kg, 3 h, tissue Plasma, route gavage, dose level Low
[25] = po, 25 mg/kg, 6 h, tissue Plasma, route gavage, dose level Low
[26] = po, 25 mg/kg, 9 h, tissue Plasma, route gavage, dose level Low
[27] = po, 25 mg/kg, 24 h, tissue Plasma, route gavage, dose level Low
[28] = po, 75 mg/kg, 3 h, tissue Plasma, route gavage, dose level Middle
[29] = po, 75 mg/kg, 6 h, tissue Plasma, route gavage, dose level Middle
[30] = po, 75 mg/kg, 9 h, tissue Plasma, route gavage, dose level Middle
[31] = po, 75 mg/kg, 24 h, tissue Plasma, route gavage, dose level Middle
[32] = po, 250 mg/kg, 3 h, tissue Plasma, route gavage, dose level High
[33] = po, 250 mg/kg, 6 h, tissue Plasma, route gavage, dose level High
[34] = po, 250 mg/kg, 9 h, tissue Plasma, route gavage, dose level High
[35] = po, 250 mg/kg, 24 h, tissue Plasma, route gavage, dose level High

Compound: CC/C(=C(\c1ccccc1)c1ccc(OCCN(C)C)cc1)c1ccccc1 [TAMOXIFEN]
- Ret (Rattus norvegicus [1]; po, 0 mg/kg, 3 h, tissue Blood, route gavage, dose level Control): 10.1%
- ALP (Rattus norvegicus [1]; [3]): 1541 IU/L
- Ret (Rattus norvegicus [1]; po, 0 mg/kg, 24 h, tissue Blood, route gavage, dose level Control): 10.3%
- PL (Rattus norvegicus [1]; [4]): 156.4 mg/dL
- Ret (Rattus norvegicus [1]; po, 6 mg/kg, 3 h, tissue Blood, route gavage, dose level Low): 10.1%
- Ret (Rattus norvegicus [1]; po, 6 mg/kg, 9 h, tissue Blood, route gavage, dose level Low): 10.1%
- Ca (Rattus norvegicus [1]; po, 20 mg/kg, 9 h, tissue Plasma, route gavage, dose level Middle): 10.3 mg/dL
- Ret (Rattus norvegicus [1]; po, 60 mg/kg, 6 h, tissue Blood, route gavage, dose level High): 10.1%
- PL (Rattus norvegicus [1]; po, 60 mg/kg, 24 h, tissue Plasma, route gavage, dose level High): 103 mg/dL

Compound: LPS
- Fbg (Rattus norvegicus [1]; [5]): 245 mg/dL
- Hb (Rattus norvegicus [1]; [5]): 13.3 g/dL
- Ht (Rattus norvegicus [1]; ip, 0.01 mg/kg, 3 h, tissue Blood, route intraperitoneal injection, dose 10 ug/Kg, dose level Low): 39.2%
- Ca (Rattus norvegicus [1]; ip, 0.01 mg/kg, 3 h, tissue Plasma, route intraperitoneal injection, dose 10 ug/Kg, dose level Low): 10.2 mg/dL
- Hb (Rattus norvegicus [1]; ip, 0.01 mg/kg, 6 h, tissue Blood, route intraperitoneal injection, dose 10 ug/Kg, dose level Low): 13.3 g/dL
- Ca (Rattus norvegicus [1]; ip, 0.01 mg/kg, 9 h, tissue Plasma, route intraperitoneal injection, dose 10 ug/Kg, dose level Low): 10.2 mg/dL
- MCV (Rattus norvegicus [1]; ip, 0.3 mg/kg, 3 h, tissue Blood, route intraperitoneal injection, dose 300 ug/Kg, dose level Middle): 66.2 fL
- Hb (Rattus norvegicus [1]; ip, 3 mg/kg, 3 h, tissue Blood, route intraperitoneal injection, dose 3000 ug/Kg, dose level High): 13.2 g/dL
- Hb (Rattus norvegicus [1]; ip, 3 mg/kg, 6 h, tissue Blood, route intraperitoneal injection, dose 3000 ug/Kg, dose level High): 13.3 g/dL
- IP (Rattus norvegicus [1]; ip, 3 mg/kg, 9 h, tissue Plasma, route intraperitoneal injection, dose 3000 ug/Kg, dose level High): 10.7 mg/dL
- Ca (Rattus norvegicus [1]; ip, 3 mg/kg, 24 h, tissue Plasma, route intraperitoneal injection, dose 3000 ug/Kg, dose level High): 10.2 mg/dL

Compound: CN1C(=O)CN=C(c2ccccc2)c2cc(Cl)ccc21 [DIAZEPAM]
- A/G (Rattus norvegicus [2]; [6]): 1.9
- Ca (Rattus norvegicus [2]; [6]): 10.3 mg/dL
- IP (Rattus norvegicus [2]; [6]): 7.7 mg/dL
- LDH (Rattus norvegicus [2]; [6]): 81.2 IU/L
- A/G (Rattus norvegicus [2]; [7]): 2
- Ca (Rattus norvegicus [2]; [7]): 11.4 mg/dL
- IP (Rattus norvegicus [2]; [7]): 8.4 mg/dL
- LDH (Rattus norvegicus [2]; [7]): 76.2 IU/L
- A/G (Rattus norvegicus [2]; [8]): 1.7
- Ca (Rattus norvegicus [2]; [8]): 11.1 mg/dL
- IP (Rattus norvegicus [2]; [8]): 7.7 mg/dL
- LDH (Rattus norvegicus [2]; [8]): 127.8 IU/L
- A/G (Rattus norvegicus [2]; [9]): 1.7
- Ca (Rattus norvegicus [2]; [9]): 10.7 mg/dL
- IP (Rattus norvegicus [2]; [9]): 6.3 mg/dL
- LDH (Rattus norvegicus [2]; [9]): 55.6 IU/L
- A/G (Rattus norvegicus [2]; [10]): 2.2
- Ca (Rattus norvegicus [2]; [10]): 10.3 mg/dL
- IP (Rattus norvegicus [2]; [10]): 8.4 mg/dL
- LDH (Rattus norvegicus [2]; [10]): 102.6 IU/L
- A/G (Rattus norvegicus [2]; [11]): 2.1
- Ca (Rattus norvegicus [2]; [11]): 11 mg/dL
- IP (Rattus norvegicus [2]; [11]): 8.1 mg/dL
- LDH (Rattus norvegicus [2]; [11]): 80.8 IU/L
- A/G (Rattus norvegicus [2]; [12]): 1.9
- Ca (Rattus norvegicus [2]; [12]): 10.9 mg/dL
- IP (Rattus norvegicus [2]; [12]): 7.2 mg/dL
- LDH (Rattus norvegicus [2]; [12]): 93.2 IU/L
- A/G (Rattus norvegicus [2]; [13]): 1.6
- Ca (Rattus norvegicus [2]; [13]): 10.6 mg/dL
- IP (Rattus norvegicus [2]; [13]): 7 mg/dL
- LDH (Rattus norvegicus [2]; [13]): 71.6 IU/L
- A/G (Rattus norvegicus [2]; [14]): 2.1
- Ca (Rattus norvegicus [2]; [14]): 10.6 mg/dL
- IP (Rattus norvegicus [2]; [14]): 7.9 mg/dL
- LDH (Rattus norvegicus [2]; [14]): 105.2 IU/L
- A/G (Rattus norvegicus [2]; [15]): 2.1
- Ca (Rattus norvegicus [2]; [15]): 11 mg/dL
- IP (Rattus norvegicus [2]; [15]): 7.9 mg/dL
- LDH (Rattus norvegicus [2]; [15]): 73.2 IU/L
- A/G (Rattus norvegicus [2]; [16]): 1.8
- Ca (Rattus norvegicus [2]; [16]): 11 mg/dL
- IP (Rattus norvegicus [2]; [16]): 7.4 mg/dL
- LDH (Rattus norvegicus [2]; [16]): 95.2 IU/L
- A/G (Rattus norvegicus [2]; [17]): 1.6
- Ca (Rattus norvegicus [2]; [17]): 10.5 mg/dL
- IP (Rattus norvegicus [2]; [17]): 6.1 mg/dL
- LDH (Rattus norvegicus [2]; [17]): 56.8 IU/L
- A/G (Rattus norvegicus [2]; [18]): 1.8
- Ca (Rattus norvegicus [2]; [18]): 10.8 mg/dL
- IP (Rattus norvegicus [2]; [18]): 7.9 mg/dL
- LDH (Rattus norvegicus [2]; [18]): 175.6 IU/L
- A/G (Rattus norvegicus [2]; [19]): 1.8
- Ca (Rattus norvegicus [2]; [19]): 10.9 mg/dL
- IP (Rattus norvegicus [2]; [19]): 7.6 mg/dL
- LDH (Rattus norvegicus [2]; [19]): 192 IU/L
- A/G (Rattus norvegicus [2]; [20]): 1.8
- Ca (Rattus norvegicus [2]; [20]): 11.4 mg/dL
- IP (Rattus norvegicus [2]; [20]): 7.8 mg/dL
- LDH (Rattus norvegicus [2]; [20]): 169.6 IU/L
- A/G (Rattus norvegicus [2]; [21]): 1.7
- Ca (Rattus norvegicus [2]; [21]): 10.7 mg/dL
- IP (Rattus norvegicus [2]; [21]): 7.3 mg/dL
- LDH (Rattus norvegicus [2]; [21]): 97 IU/L
- A/G (Rattus norvegicus [1]; [22]): 2
- IP (Rattus norvegicus [1]; [22]): 9.3 mg/dL
- A/G (Rattus norvegicus [1]; [23]): 2
- Ca (Rattus norvegicus [1]; [23]): 10.1 mg/dL
- IP (Rattus norvegicus [1]; [23]): 10.2 mg/dL
- LDH (Rattus norvegicus [1]; [23]): 82.6 IU/L
- A/G (Rattus norvegicus [1]; [3]): 2.1
- IP (Rattus norvegicus [1]; [3]): 10.1 mg/dL
- LDH (Rattus norvegicus [1]; [3]): 79.2 IU/L
- A/G (Rattus norvegicus [1]; [4]): 2
- Ca (Rattus norvegicus [1]; [4]): 9.9 mg/dL
- IP (Rattus norvegicus [1]; [4]): 8.2 mg/dL
- LDH (Rattus norvegicus [1]; [4]): 93.8 IU/L
- A/G (Rattus norvegicus [1]; [24]): 2
- Ca (Rattus norvegicus [1]; [24]): 10.8 mg/dL
- IP (Rattus norvegicus [1]; [24]): 11 mg/dL
- LDH (Rattus norvegicus [1]; [24]): 76.4 IU/L
- A/G (Rattus norvegicus [1]; [25]): 2
- IP (Rattus norvegicus [1]; [25]): 10.3 mg/dL
- LDH (Rattus norvegicus [1]; [25]): 94.6 IU/L
- A/G (Rattus norvegicus [1]; [26]): 2.2
- Ca (Rattus norvegicus [1]; [26]): 10.8 mg/dL
- IP (Rattus norvegicus [1]; [26]): 11.1 mg/dL
- LDH (Rattus norvegicus [1]; [26]): 79.2 IU/L
- A/G (Rattus norvegicus [1]; [27]): 1.9
- Ca (Rattus norvegicus [1]; [27]): 10.2 mg/dL
- IP (Rattus norvegicus [1]; [27]): 7.4 mg/dL
- LDH (Rattus norvegicus [1]; [27]): 97 IU/L
- A/G (Rattus norvegicus [1]; [28]): 2.5
- Ca (Rattus norvegicus [1]; [28]): 10.6 mg/dL
- IP (Rattus norvegicus [1]; [28]): 10.9 mg/dL
- LDH (Rattus norvegicus [1]; [28]): 76.6 IU/L
- A/G (Rattus norvegicus [1]; [29]): 1.9
- Ca (Rattus norvegicus [1]; [29]): 10.6 mg/dL
- IP (Rattus norvegicus [1]; [29]): 10.6 mg/dL
- LDH (Rattus norvegicus [1]; [29]): 83.8 IU/L
- A/G (Rattus norvegicus [1]; [30]): 2.1
- Ca (Rattus norvegicus [1]; [30]): 11 mg/dL
- IP (Rattus norvegicus [1]; [30]): 11.2 mg/dL
- LDH (Rattus norvegicus [1]; [30]): 84.4 IU/L
- A/G (Rattus norvegicus [1]; [31]): 2.4
- Ca (Rattus norvegicus [1]; [31]): 10.1 mg/dL
- IP (Rattus norvegicus [1]; [31]): 7.9 mg/dL
- LDH (Rattus norvegicus [1]; [31]): 93.6 IU/L
- A/G (Rattus norvegicus [1]; [32]): 1.9
- Ca (Rattus norvegicus [1]; [32]): 10.2 mg/dL
- LDH (Rattus norvegicus [1]; [32]): 134.2 IU/L
- A/G (Rattus norvegicus [1]; [33]): 2
- Ca (Rattus norvegicus [1]; [33]): 10.6 mg/dL
- IP (Rattus norvegicus [1]; [33]): 9.9 mg/dL
- LDH (Rattus norvegicus [1]; [33]): 183.8 IU/L
- A/G (Rattus norvegicus [1]; [34]): 2
- Ca (Rattus norvegicus [1]; [34]): 11.1 mg/dL
- IP (Rattus norvegicus [1]; [34]): 10.3 mg/dL
- LDH (Rattus norvegicus [1]; [34]): 222.2 IU/L
- A/G (Rattus norvegicus [1]; [35]): 2.2
- IP (Rattus norvegicus [1]; [35]): 8.6 mg/dL
- LDH (Rattus norvegicus [1]; [35]): 167 IU/L

Compound: CN(C)CCCN1c2ccccc2CCc2ccc(Cl)cc21 [CLOMIPRAMINE]
- RBC (Rattus norvegicus [1]; po, 30 mg/kg, 3 h, tissue Blood, route gavage, dose level Middle): 677 x10_4/ul
- Cl (Rattus norvegicus [1]; po, 100 mg/kg, 6 h, tissue Plasma, route gavage, dose level High): 106.4 meq/L
